# Source: patent US20050221328A1, “Inhibitors of inflammatory gene activity and cholesterol biosynthesis” (Wyeth, priority 2002, published 2005)
# Amino acid sequences for entries named in this document (tags omitted).
# UniProt Q92731, whole entry: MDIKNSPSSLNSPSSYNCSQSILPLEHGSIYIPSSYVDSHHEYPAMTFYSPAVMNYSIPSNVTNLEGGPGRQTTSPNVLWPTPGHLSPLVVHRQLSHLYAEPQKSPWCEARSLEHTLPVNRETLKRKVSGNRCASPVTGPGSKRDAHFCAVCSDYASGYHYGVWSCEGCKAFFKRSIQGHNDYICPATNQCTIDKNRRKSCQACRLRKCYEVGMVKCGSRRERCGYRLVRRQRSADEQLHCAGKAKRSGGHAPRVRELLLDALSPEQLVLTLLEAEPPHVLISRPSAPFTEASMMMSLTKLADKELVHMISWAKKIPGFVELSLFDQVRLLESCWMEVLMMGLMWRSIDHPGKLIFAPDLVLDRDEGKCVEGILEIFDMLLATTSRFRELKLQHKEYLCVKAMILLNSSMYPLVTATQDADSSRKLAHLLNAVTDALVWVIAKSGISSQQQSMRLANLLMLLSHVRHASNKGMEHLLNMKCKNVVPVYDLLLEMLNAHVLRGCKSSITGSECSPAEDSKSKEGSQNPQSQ
# Biological target: human ERβ (Homo sapiens, UniProt Q92731)
# Assay: IL-1β induction of NFκB driven luciferase reporter in HepG2 cells transfected with ERβ
# Format: cell-based
# Settings: HepG2, 10 nM 17β-estradiol, 100 U/ml IL-1β 6 hours, p<0.01; less efficacious than ERα
structure (smiles),measurement,value
"C[C@]12CC[C@@H]3c4ccc(O)cc4CC[C@H]3[C@@H]1CC[C@@H]2O [E2, 17β-estradiol]","IL-1β induction of luciferase activity (NFκB reporter), ERβ",significantly repressed
